Reference: patent US8217189B2, “Chromenone potassium channel blockers and uses thereof” (Bionomics Limited, priority 2006, dated 2012)
pEC50: −log10 of the molar value.

Protein sequences, listed by entry. Tags and fused reporters are not part of them.
UniProt P22001, whole entry: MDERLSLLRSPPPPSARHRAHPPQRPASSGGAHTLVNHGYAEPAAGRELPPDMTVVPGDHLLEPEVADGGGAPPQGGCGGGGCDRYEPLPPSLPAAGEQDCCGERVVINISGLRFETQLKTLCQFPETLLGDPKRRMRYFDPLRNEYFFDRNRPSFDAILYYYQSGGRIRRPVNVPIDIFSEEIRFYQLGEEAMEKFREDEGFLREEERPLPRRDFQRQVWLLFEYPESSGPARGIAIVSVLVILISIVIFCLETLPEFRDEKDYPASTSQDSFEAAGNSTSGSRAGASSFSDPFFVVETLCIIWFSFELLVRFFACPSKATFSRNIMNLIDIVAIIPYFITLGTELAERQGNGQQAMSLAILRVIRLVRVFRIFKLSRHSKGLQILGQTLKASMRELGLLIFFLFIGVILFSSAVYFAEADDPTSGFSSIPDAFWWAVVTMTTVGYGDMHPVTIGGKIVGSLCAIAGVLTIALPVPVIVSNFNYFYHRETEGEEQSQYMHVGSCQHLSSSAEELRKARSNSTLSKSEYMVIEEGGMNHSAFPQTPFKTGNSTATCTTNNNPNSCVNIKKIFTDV

Biological target: human Kv1.3 ion channel (Homo sapiens, UniProt P22001)
Test: Inhibition of Kv1.3 currents, planar patch clamp in human Jurkat cells
Settings: read-out: EC50 Kv1.3, Jurkat cells endogenously expressing hKv1.3, averaged dose response data from 3 or more cells

pEC50: 6.59
SMILES: CSCc1cc(=O)c2c(OCCCCOc3ccccc3)c3ccoc3cc2o1
